# Results: PubChem BioAssay AID2462 (Broad Institute, 2010)
# The list shows a part of the results, in another mix than the full data. The source made the active and inactive calls.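 The calls were made as follows: active = over half of replicate activation scores above 10%, or exactly half above 10 with the replicate mean above 10; inconclusive = replicate mean below 10 yet half the replicates above 10; inactive = over half of replicates below 10.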
# Assay: inducers of caspase signal in A1-primed MEFs – cell-based, luminescence, HTS, A1 inhibitor project, primary screen (AID 2462)
# Conditions: MEF A1-2A-BIM cells, Caspase-Glo 3/7 luminescence, 3 h; hits give high values; percent of clofoctol response, vehicle zero; concentration not given here
row,Structure (SMILES),caspase activation
1,CC(C)(C)C(=O)NC(Sc1ccncn1)C(Cl)(Cl)Cl (centres undefined),inactive: 0.89%
2,O=C(O)CNc1ccc([As](=O)(O)O)cc1,inactive: 0.936%
3,O=[N+]([O-])c1cccc(NC2=NCC(CBr)S2)c1 (centres undefined),inactive: -0.884%
4,Nc1ccc2c(ccc3cccnc32)n1.O=[N+]([O-])c1cc([N+](=O)[O-])c(O)c([N+](=O)[O-])c1,inactive: 0.0257%
5,CP(=O)(OC12CC3CC(CC(C3)C1)C2)OC12CC3CC(CC(C3)C1)C2,inactive: 0.734%
6,O=C(Nc1cc([As](=O)(O)O)ccc1O)c1ccccc1,inactive: 0.597%
7,CCOC(=O)c1ccc(NP(C)(=O)Oc2ccc(Cl)cc2)cc1 (centres undefined),inactive: 0.493%
8,O=[N+]([O-])c1cc([N+](=O)[O-])c(CCN2CCOCC2)c([N+](=O)[O-])c1,inactive: 2%
9,CP(=O)(Nc1ccc(Cl)cc1Cl)Oc1ccccc1 (centres undefined),inactive: 1.01%
10,CP(=O)(OCCOc1ccccc1)OCCOc1ccccc1,inactive: -0.33%
11,Nc1cccc2ccc([As](=O)(O)O)cc12,inactive: -0.88%
12,CCN(N=Nc1nonc1N)c1nonc1N,inactive: 0.417%
13,O=P(Nc1nc2ccc(Cl)cc2s1)(c1ccccc1)c1ccccc1,inactive: -0.00653%
14,Cc1cc(C)cc(OP(C)(=O)Nc2cccc(C(F)(F)F)c2)c1 (centres undefined),inactive: 0.0804%
15,CC(=O)Nc1ccc([As](=O)(O)O)cc1,inactive: -0.106%
16,O=C(O)c1ccccc1[As](=O)(O)O,inactive: 0.629%
17,COc1ccc(OP(C)(=O)Nc2ccccc2Br)cc1 (centres undefined),inactive: 0.324%
18,COc1ccccc1OP(C)(=O)Nc1ccc(C)c(C)c1 (centres undefined),inactive: 0.551%
19,Cc1ccc(NP(=O)(Oc2ccccc2F)Oc2ccccc2F)nc1,inactive: -0.626%
20,CN(C(=O)Cc1ccc(Cl)c(Cl)c1)[C@H]1CCCC[C@@H]1N1CCCC1,inactive: 0.107%
21,Cc1cc(SC(NC(=O)c2ccc(F)cc2)C(Cl)(Cl)Cl)ncn1 (centres undefined),inactive: -0.123%
22,CCOP(=O)(Nc1ccccc1)OCC,inactive: -0.562%
23,O=C(NC(Sc1ccncn1)C(Cl)(Cl)Cl)c1ccccc1 (centres undefined),inactive: -0.722%
24,Cc1c2non([O-])c-2c(C)[n+](=O)[n+]1[O-],inactive: 0.671%
25,Oc1ccccc1CNc1ccccn1,inactive: 0.618%

row,Structure (SMILES),caspase activation
1,Cc1c(NP(C)(=O)Oc2ccc(C(C)C)cc2)c(=O)n(-c2ccccc2)n1C (centres undefined),inactive: -0.0176%
2,Nc1cc(N)c2nonc2c1[N+](=O)[O-],inactive: 0.0629%
3,CC(C)CC(=O)NC(Sc1ccc(Cl)cc1)C(Cl)(Cl)Cl (centres undefined),inactive: -0.511%
4,O=[N+]([O-])c1cc([N+](=O)[O-])c(Nc2ccccn2)c([N+](=O)[O-])c1,inactive: 2.28%
5,CCc1ccc(OP(C)(=O)O)cc1,inactive: -0.171%
6,COc1ccccc1OP(C)(=O)Nc1ccc(C)cc1C (centres undefined),inactive: -1.22%
7,CP(=O)(Nc1ccccn1)Oc1ccccc1 (centres undefined),inactive: 1.84%
8,Cc1ccc(N/C(=N/P(=O)(N2CCOCC2)N2CCOCC2)N2CCOCC2)cc1,inactive: 0.114%
9,CN(C(=O)Cc1ccc(Cl)c(Cl)c1)[C@H]1CCCC[C@H]1N1CCCC1,inactive: 0.436%
10,COc1ccccc1OP(C)(=O)Nc1ccc(Br)cc1 (centres undefined),inactive: 0.152%
11,NC(=O)c1cc([N+](=O)[O-])cc([N+](=O)[O-])c1N,inactive: -0.654%
12,CN1CCCC(OC(=O)C(c2ccccc2)c2ccccc2)C1 (centres undefined),inactive: 1.27%
13,Clc1ccc(Cl)c(NC2=NCC(CBr)S2)c1 (centres undefined),inactive: 2.81%
14,CN(C)CCOC(=O)C(O)(c1ccccc1)C1CCCC1 (centres undefined),inactive: 0.141%
15,Cc1ccc(OP(=O)(Nc2nccs2)Oc2ccc(C)cc2)cc1,inactive: 1.88%
16,COc1ccccc1OP(=O)(Nc1ccc(C)cn1)Oc1ccccc1OC,inactive: -0.501%
17,COc1ccc(OP(C)(=O)Nc2ccccn2)cc1 (centres undefined),inactive: -0.911%
18,C[C@H]1OP(=O)(Oc2ccccc2)C[C@@H]2O[C@@H]21 (some centres undefined),inactive: -0.537%
19,C[C@@H]1C=CCP(=O)(Oc2ccccc2)O1 (some centres undefined),inactive: -0.0831%
20,O=C(OCCN1CCN(CCOCc2ccccc2)CC1)C(O)(c1ccccc1)c1ccccc1,inactive: 0.262%
21,O=C(OC1CN2CCC1CC2)c1ccc([N+](=O)[O-])cc1 (centres undefined),inactive: 1.44%
22,CC(=O)c1ccc(N2CC2c2ccncc2)cc1 (centres undefined),inactive: -1.93%
23,CC(=O)Nc1ccc(Oc2c([N+](=O)[O-])cc([N+](=O)[O-])cc2[N+](=O)[O-])cc1,inactive: 0.314%
24,CC(=O)Nc1ccc([As](=O)(O)O)c(O)c1,inactive: 0.642%
